Measured values: PubChem BioAssay AID651819 (National Center for Advancing Translational Sciences (NCATS), 2012)
The entries are a selection whose mix differs from that of the whole data set. Active and inactive are the calls of the source. No stated cut-off is given here; in the data, active means activity change below about -30%; inactive means the rest.

System: cytosolic chaperonin (CCT/TRiC complex)
Assay: High-Throughput Screening for Modulators of Cytosolic Chaperonin Activity
Conditions: purified chaperonin ATPase assay, HTRF ADP detection, 30 min; active compounds read low
Method in brief: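 TRiC at 40 or 20 nM final (batch-dependent) in 30 mM Tris pH 7.4, 100 mM KCl, 5 mM MgCl2, 1 mM DTT, with compound at single 76 uM and 10 uM ATP, 30 min at 37 deg C. ADP detected by HTRF Transcreener, 665/615 ratio.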
On the % scale 0 is the no-effect control and ±100 the full control effect.

Row | Compound | activity change
1 | COc1ccc(N/C(=N/P(=O)(N2CCOCC2)N2CCOCC2)N2CCOCC2)cc1 | inactive: -0.459%
2 | Cc1cccc(OCC(=O)OC2CN3CCC2CC3)c1 (stereo not given) | inactive: -0.572%
3 | O=[As](O)(c1cccc(O)c1)c1cccc(O)c1 | inactive: 0.97%
4 | O=C(OC1CN2CCC1CC2)c1ccc(Cl)cc1 (stereo not given) | inactive: -0.485%
5 | O=[As](O)(O)c1cccnc1 | inactive: -1.96%
6 | COc1cc(C(=O)NCC2(N3CCOCC3)CCCCC2)cc(Cl)c1OC(C)C | inactive: -3.82%
7 | CS(=O)(=O)c1ccc(Cl)c(NC(=O)COC(=O)C(O)(c2ccccc2)c2ccccc2)c1 | inactive: 0.184%
8 | COc1cc(C2NCCC3(OCCO3)C2(C)C)cc(OC)c1OC (stereo not given) | active: -35.1%
9 | CCOP(=O)(Nc1cccc2ccccc12)OCC | inactive: -1.4%
10 | Nc1cccc2c([As](=O)(O)O)cccc12 | inactive: 0.86%
11 | Cc1ccc(NCCc2c([N+](=O)[O-])cc([N+](=O)[O-])cc2[N+](=O)[O-])cc1 | inactive: 2.04%
12 | CCCOP(=S)(Nc1nc(N)cc(=O)[nH]1)OCCC | inactive: -1.78%
13 | Nc1ccccc1[As](=O)(O)c1ccccc1 | inactive: 0.266%
14 | O=C(O)COc1ccc([As](=O)(O)O)cc1[N+](=O)[O-] | inactive: -1.37%
15 | CCOP1(=S)c2c(C)nn(CCC#N)c2N=C(c2ccccc2F)N1C (stereo not given) | inactive: 2.12%
16 | O=P(Nc1nccs1)(Oc1ccccc1)Oc1ccccc1 | inactive: 2.29%
17 | O=P(Nc1nccs1)(c1ccccc1)c1nc2ccccc2s1 (stereo not given) | inactive: -0.806%
18 | CS(=O)(=O)c1cc([N+](=O)[O-])c2no[n+]([O-])c2c1 | inactive: 0.143%
19 | N#CCCN(C(=O)COC(=O)C(O)(c1ccccc1)c1ccccc1)c1ccc(F)cc1 | inactive: 0.952%
20 | CCOP1(=S)c2c(C)nn(CCC#N)c2N=C(c2ccc(F)cc2)N1C (stereo not given) | inactive: -5.67%
21 | CN(C(=O)Cc1ccccc1)[C@@H]1CC[C@]2(CCCO2)C[C@H]1N1CCCC1 | inactive: 0.28%
22 | O=[N+]([O-])c1ccc2c(c1)nnn2O | inactive: -1.92%
23 | CN(C)C(=O)c1cc([N+](=O)[O-])cc2c1-c1c(cc([N+](=O)[O-])cc1[N+](=O)[O-])C2=O | inactive: -0.655%
24 | CN(C(=O)Cc1ccc(Cl)c(Cl)c1)[C@H]1CC[C@@]2(CCCO2)C[C@@H]1N1CCCC1 | inactive: -0.203%
25 | NC(=O)Nc1ccc([As](=O)(O)O)cc1 | inactive: -0.57%

Row | Compound | activity change
26 | CN(C)C1(CNC(=O)c2ccc(S(C)(=O)=O)cc2)CCCCC1 | inactive: -0.962%
27 | O=C(/C=C/c1ccccc1)OC1CN2CCC1CC2 (stereo not given) | inactive: 0.425%
28 | CCCC1OP(=O)(Nc2ccccc2)OCC1CC (stereo not given) | inactive: 1.32%
29 | Cc1nn(-c2ccccc2)c2c1P(=O)(N1CCOCC1)N(C)C(c1ccccc1)=N2 (stereo not given) | inactive: 0.446%
30 | CC1CCC(C(C)C)C(OP(=O)(Nc2ccccn2)c2ccccc2)C1 (stereo not given) | inactive: 0.0783%
31 | Cc1ccc(C(=O)OC2CN3CCC2CC3)cc1 (stereo not given) | inactive: -0.61%
32 | Nc1cccc([As](=O)(O)c2ccccc2)c1 | inactive: -1.09%
33 | O=[As](O)(c1cccs1)c1cccs1 | inactive: 1.36%
34 | Cc1ccc(OCC(=O)OC2CN3CCC2CC3)cc1 (stereo not given) | inactive: 0.0368%
35 | O=P1(Nc2ccc(Br)cn2)COc2ccccc2OC1 | inactive: -2.17%
36 | NS(=O)(=O)c1cccc(NC(=O)COC(=O)C(O)(c2ccccc2)c2ccccc2)c1 | inactive: 1.51%
37 | Cc1ccc(S(=O)(=O)N(CCCN)CCCc2c(C)nc(N)[nH]c2=O)cc1 | inactive: -3.09%
38 | O=P1(Nc2ncccn2)COc2ccccc2OC1 | inactive: -4.88%
39 | O=P1(N(CCCl)CCCl)NCCC(C(F)(F)F)O1 (stereo not given) | inactive: -1.35%
40 | Clc1n[nH]nc1-c1nn[nH][15n]1 | inactive: -0.0184%
41 | CC(C)(C)C(=O)NC(Sc1ncccn1)C(Cl)(Cl)Cl (stereo not given) | inactive: 1.12%
42 | O=P1(Nc2ccccn2)COc2ccccc2OC1 | inactive: -0.304%
43 | CCC1=CC2Cc3nc4ccc(Cl)cc4c(N)c3C(C1)C2 (stereo not given) | inactive: 0.106%
44 | CCOP(=O)(NC(=NC(C)c1ccccc1)NC(C)c1ccccc1)OCC (stereo not given) | inactive: 1.44%
45 | CCOP(=O)(Nc1ccc(C)cn1)OCC | inactive: 1.04%
46 | CN(CCCl)Cc1cc(Cl)c(NC2=NCCN2)c(Cl)c1 | inactive: -0.524%
47 | CC(C)/C=N\N=C(\N)N[N+](=O)[O-] | inactive: 2.72%
48 | CN(C(=O)Cc1ccc(Cl)c(Cl)c1)[C@@H]1CCCC[C@H]1N1CCCC1 | inactive: -3.42%
49 | CC1(CBr)Cn2c(nc3ccccc3c2=O)S1 (stereo not given) | inactive: 0.875%
50 | COc1ccccc1CNC(=O)COC(=O)C(O)(c1ccccc1)c1ccccc1 | inactive: -4.3%
